Data published in PubChem BioAssay AID1224863 (Southern Research Institute, 2016).
Where “and” joins values, the source holds several entries; their conditions need not be identical. Equal entries are not always repeated. The campaign covered roughly 10,000 compounds. About 15 (0.1%) were called active.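 Rule for the calls: active = highest signal at least 8 times the median of untreated cell-only control wells at some dose; inactive = the rest.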 Not all results are given here.

Protein sequences, listed by entry. Tags and fused reporters are not part of them. Chains listed by the source or under a name are the forms on record and can include a tag or linker.
UniProt P13569, with tags, fused parts or gaps F508del: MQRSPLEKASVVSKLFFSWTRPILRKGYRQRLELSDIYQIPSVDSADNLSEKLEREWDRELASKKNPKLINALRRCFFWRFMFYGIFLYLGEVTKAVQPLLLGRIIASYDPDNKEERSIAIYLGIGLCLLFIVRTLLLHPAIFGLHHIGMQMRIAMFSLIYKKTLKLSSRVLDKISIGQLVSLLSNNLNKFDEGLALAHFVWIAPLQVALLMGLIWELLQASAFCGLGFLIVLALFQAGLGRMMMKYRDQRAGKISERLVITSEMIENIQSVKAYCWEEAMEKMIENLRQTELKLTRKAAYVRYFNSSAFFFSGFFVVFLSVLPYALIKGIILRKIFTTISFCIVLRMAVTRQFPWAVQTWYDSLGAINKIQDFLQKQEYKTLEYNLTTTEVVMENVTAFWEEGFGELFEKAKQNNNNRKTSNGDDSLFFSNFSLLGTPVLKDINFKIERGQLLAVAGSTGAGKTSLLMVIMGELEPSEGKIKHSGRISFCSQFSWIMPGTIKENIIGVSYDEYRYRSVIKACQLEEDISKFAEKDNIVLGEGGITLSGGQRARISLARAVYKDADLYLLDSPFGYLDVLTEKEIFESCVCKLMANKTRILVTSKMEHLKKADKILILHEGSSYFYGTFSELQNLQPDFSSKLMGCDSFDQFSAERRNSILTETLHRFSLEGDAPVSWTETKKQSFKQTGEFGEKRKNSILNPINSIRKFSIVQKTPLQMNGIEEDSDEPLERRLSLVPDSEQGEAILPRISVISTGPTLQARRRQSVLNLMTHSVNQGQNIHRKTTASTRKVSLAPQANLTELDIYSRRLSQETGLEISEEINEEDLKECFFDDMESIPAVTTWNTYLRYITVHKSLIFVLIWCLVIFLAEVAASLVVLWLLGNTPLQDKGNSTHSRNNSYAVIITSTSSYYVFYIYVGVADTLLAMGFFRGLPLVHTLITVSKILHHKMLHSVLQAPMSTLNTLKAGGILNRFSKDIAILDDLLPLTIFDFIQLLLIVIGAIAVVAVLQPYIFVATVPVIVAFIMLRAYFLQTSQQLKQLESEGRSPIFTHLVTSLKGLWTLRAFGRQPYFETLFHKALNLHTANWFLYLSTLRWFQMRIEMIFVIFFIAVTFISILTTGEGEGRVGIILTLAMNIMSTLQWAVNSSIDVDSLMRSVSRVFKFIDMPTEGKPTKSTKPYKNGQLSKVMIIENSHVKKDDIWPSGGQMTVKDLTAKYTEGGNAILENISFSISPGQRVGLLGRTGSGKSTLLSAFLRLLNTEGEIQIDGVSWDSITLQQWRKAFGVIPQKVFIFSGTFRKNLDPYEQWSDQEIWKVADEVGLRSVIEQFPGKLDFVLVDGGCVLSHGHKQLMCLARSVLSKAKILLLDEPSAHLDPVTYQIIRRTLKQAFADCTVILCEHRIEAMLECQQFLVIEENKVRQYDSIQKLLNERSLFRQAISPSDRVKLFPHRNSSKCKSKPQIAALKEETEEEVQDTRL

How the values were obtained:
[1] = compounds raising F508del-CFTR protein level – cell-based, HeLa F508del-CFTR, immunofluorescence, viability, primary screen (AID 1224863); details: immunofluorescence total CFTR, 24 h, stronger effect = higher value; min viability: measured here: HeLa viability, alamarBlue, dose 20, library dosed in µg/mL unless noted; viability: measured here: primary viability 10 ug/mL, library dosed in µg/mL unless noted;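 for fold increase: total CFTR protein by anti-CFTR immunofluorescence in fixed cells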;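 for max fold increase: total CFTR protein by anti-CFTR immunofluorescence in fixed cells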
[2] = molecular target: Cystic fibrosis transmembrane conductance regulator (Homo sapiens) (UniProt P13569); test: as above; details: immunofluorescence total CFTR, 24 h; fold increase: measured here: primary screen 10 ug/mL, library dosed in µg/mL, stronger effect = higher value unless noted; max fold increase: dose 10, library dosed in µg/mL, stronger effect = higher value unless noted; outcome: library dosed in µg/mL unless noted

Row | Structure (SMILES) | viability [1] | fold increase [2] | outcome [2] | min viability [1] | max fold increase [2]
1 | CC(C)Cn1nnc(-c2ccc(Cl)cc2)n1 | 99% | 1.4 | inactive | – | –
2 | O=C(O)c1cc(C2CC2)nc2onc(-c3ccco3)c12 | 109% | 1.11 | inactive | – | –
3 | N#Cc1nc2c(S(=O)(=O)c3ccc(Cl)cc3)c(N)n(Cc3ccc(C(F)(F)F)cc3)c2nc1C#N | 87% | 0.86 | inactive | – | –
4 | Cc1cc(C)n2c(=S)n(CN(C)Cc3ccccc3Cl)nc2n1 | 97% | 0.97 | inactive | – | –
5 | CC(NCC(O)c1ccccc1)c1ccccc1 (stereo not drawn) | 103% | 1.06 | inactive | – | –
6 | CC(Cc1ccc(Cl)cc1)NC(=O)C1(C)CC1(Cl)Cl (stereo not drawn) | 94% | 0.98 | inactive | – | –
7 | COc1ccc2c(COC(=O)c3ccc4c(c3)S(=O)(=O)N=C3CCCCCN34)cc(=O)oc2c1 | 83% | 1.02 | inactive | – | –
8 | CCc1c(C)sc2nc(SCCO)n(CCOC)c(=O)c12 | 95% | 1 | inactive | – | –
9 | CCOC(=O)C1=C(CC)Nc2ccccc2N=C1NC(=O)C12CC3CC(CC(Cl)(C3)C1)C2 | 85% | 1.09 | inactive | – | –
10 | Cn1ccc(S(=O)(=O)N2CCN(C(=O)CCC(=O)c3cccs3)CC2)c1 | 103% | 1.19 | inactive | – | –
11 | CCc1cc(OCCCCNC)ccc1Cl | 104% | 1.06 | inactive | – | –
12 | Cc1c(C(=O)CN2C(=O)NC3(CCOc4ccccc43)C2=O)sc2ccccc12 (stereo not drawn) | 115% | 1.07 | inactive | – | –
13 | COC(=O)c1ccc(OCC(=O)c2ccc3c(c2)CCO3)c(OC)c1 | 97% | 1.01 | inactive | – | –
14 | CC(CCc1ccco1)NC(=O)N1CCN(Cc2nc3scc(-c4cccs4)c3c(=O)[nH]2)CC1 (stereo not drawn) | 92% | 0.93 | inactive | – | –
15 | c1ccc2c(c1)ncn2CN1CCN(Cc2csc3ccccc23)CC1 | 107% | 1.18 | inactive | – | –
16 | Cc1cccc(CN2CCN(CN3C(=O)C(=O)N(C(C)C)C3=O)CC2)c1 | 95% | 1.02 | inactive | – | –
17 | CN(C)S(=O)(=O)N1CCN(C(=O)Nc2cccc3c2CCCC3)CC1 | 102% | 0.97 | inactive | – | –
18 | COCC(C)NC(=O)c1sccc1C (stereo not drawn) | 102% | 0.9 | inactive | – | –
19 | CC(C)(C)OC(=O)N1CC=C(n2c(=O)n(CN3CCN(c4ccccc4)CC3)c3ccccc32)CC1 | 98% | 1.06 | inactive | – | –
20 | COc1ccc(C)cc1-n1nnnc1SCC1CC1(Cl)Cl (stereo not drawn) | 86% | 0.87 | inactive | – | –
21 | Cn1nnnc1SCc1ncc(-c2ccc(F)cc2)o1 | 94% | 1.03 | inactive | – | –
22 | CN(C)S(=O)(=O)c1ccc(CN2C(=O)NC(C)(c3ccco3)C2=O)o1 (stereo not drawn) | 97% | 0.98 | inactive | – | –
23 | COc1ccc(S(=O)(=O)Nc2ccc(N3CCCC3)cc2)cc1OC | 84% | 0.85 | inactive | – | –
24 | N#Cc1ccc(CS(=O)(=O)N2CCCCCCC2)cc1 | 95% | 1.03 | inactive | – | –
25 | Nc1cnn(CCO)c1 | 92% | 0.96 | inactive | – | –

Row | Structure (SMILES) | viability [1] | fold increase [2] | outcome [2] | min viability [1] | max fold increase [2]
26 | CC(c1cc2ccccc2o1)N(C)Cc1noc(C(C)(C)C)n1 (stereo not drawn) | 89% | 0.88 | inactive | – | –
27 | N#Cc1nncn1-c1ncnc2sc3c(c12)CCC3 | 95% | 1.06 | inactive | – | –
28 | CCNc1nc(C)nc2sc(CC)cc12 | 84% | 0.96 | inactive | – | –
29 | CCC(C)(C)NC(=O)CCNC(=O)/C=C/c1ccco1 | 80% | 0.85 | inactive | – | –
30 | CC(C)Sc1nc2cc(Cl)ccc2c(=O)n1CC1CCCO1 (stereo not drawn) | 90% | 0.87 | inactive | – | –
31 | CC(C)(C)N=C1NN=C(c2cccc(F)c2)CS1 | 75% | 0.85 | inactive | – | –
32 | Clc1ccc(-n2nnnc2SCCCc2nc3ccccc3o2)cc1 | 84% | 0.85 | inactive | – | –
33 | Cc1nn(-c2ccccc2)c2c1CC(C#N)(c1nc3ccccc3s1)C1CCCN21 (stereo not drawn) | 89% | 1.29 | inactive | – | –
34 | O=S(=O)(NCCc1ccc2c(c1)OCCO2)c1ccc2c(c1)CCC2 | 95% | 0.9 | inactive | – | –
35 | C=CCn1c(SC(C)c2nnnn2-c2ccccc2)nnc1-c1ccoc1C (stereo not drawn) | 93% | 1.01 | inactive | – | –
36 | Cc1nc(N2CCC(NS(C)(=O)=O)CC2)c2c3c(sc2n1)CCC3 | 85% | 0.99 | inactive | – | –
37 | CS(=O)(=O)CCC(=O)Nc1nc2c(s1)CCC2 | 92% | 1.13 | inactive | – | –
38 | O=S(=O)(c1ccc(S(=O)(=O)N(Cc2ccc3c(c2)OCO3)C2CCCC2)cc1)N1CCCC1 | 98% | 0.96 | inactive | – | –
39 | CNC(=O)CN(C)c1ncnc2sc3c(c12)CCCC3 | 94% | 1.01 | inactive | – | –
40 | Nc1nccnc1C(=O)N1CCN(c2nccs2)CC1 | 79% | 1.03 | inactive | – | –
41 | CC[C@H](C)[C@H]1O[C@]2(CC[C@@H]1C)C[C@@H]1C[C@@H](C/C=C(\C)[C@@H](O[C@H]3C[C@H](OC)[C@@H](O[C@H]4C[C@H](OC)[C@@H](O)[C@H](C)O4)[C@H](C)O3)[C@@H](C)/C=C/C=C3\CO[C@@H]4[C@H](O)C(C)=C[C@@H](C(=O)O1)[C@]34O)O2 | 25% [measured here: primary viability 25 uM, at 25 µM, library dosed in µM] and 48% [measured here: primary viability 25 uM, at 25 µM, library dosed in µM] | 0.61 [measured here: primary screen single dose 25 uM, at 25 µM, library dosed in µM, stronger effect = higher value] and 0.72 [measured here: primary screen single dose 25 uM, at 25 µM, library dosed in µM, stronger effect = higher value] | inactive [library dosed in µM] | – | –
42 | COCCN1C(=O)C(=O)/C(=C(/O)c2ccccc2)C1c1cccc(Oc2ccccc2)c1 (stereo not drawn) | 106% | 0.99 | inactive | – | –
43 | Cc1cc(C(=O)Cn2nnn(-c3cccs3)c2=O)c(C)n1CCc1cccs1 | 91% | 0.85 | inactive | – | –
44 | O=C(CSc1nc(O)cc(=O)n1C1CCCC1)NC12CC3CC(CC(C3)C1)C2 | 85% | 0.96 | inactive | – | –
45 | CCSc1nnc(SC(C)c2ccc(F)cc2)s1 (stereo not drawn) | 77% | 0.8 | inactive | – | –
46 | O=C(CC1CC2CCC1C2)N1CCN(c2cnccn2)CC1 (stereo not drawn) | 83% | 1 | inactive | – | –
47 | O=C(CC1CC2CCC1C2)Nc1cc(NC(=O)c2ccc3c(c2)OCO3)ccc1F (stereo not drawn) | 78% | 0.79 | inactive | – | –
48 | CCc1nc2ccccc2n1CCOc1ccc(Br)cc1 | 81% | 0.89 | inactive | – | –
49 | COc1cc(F)c(S(=O)(=O)Nc2ccc3c(c2)OC2(CCCCC2)O3)cc1OC | 85% | 0.93 | inactive | – | –
50 | CCN(CC)S(=O)(=O)c1cc2c(cc1Br)NC(=O)CO2 | 92% | 1.02 | inactive | – | –

Row | Structure (SMILES) | viability [1] | fold increase [2] | outcome [2] | min viability [1] | max fold increase [2]
51 | CSCCSc1nnc(-c2ccccc2)n1-c1ccc(Cl)cc1 | 81% | 0.92 | inactive | – | –
52 | C=CCn1c(C)cc(C(=O)COc2ccc3oc4c(c3c2)CCCC4)c1C | 84% | 0.97 | inactive | – | –
53 | N#CCSc1nc2sc3c(c2c(=O)n1C1CCCC1)CCCC3 | 80% | 0.98 | inactive | – | –
54 | CCOC(=O)C1SC(SCc2cc(C(=O)OC)c(C)o2)=NC1=O (stereo not drawn) | 99% | 1.01 | inactive | – | –
55 | CN1C(=O)C(=O)N(CCOc2ccc(Cl)cc2Br)C1=O | 90% | 0.98 | inactive | – | –
56 | Clc1ccc(-c2csc(NC3CC3)n2)cc1Cl | 99% | 0.91 | inactive | – | –
57 | CC(c1nc(C(C)(C)C)no1)N1CCN(c2ccccc2F)CC1 (stereo not drawn) | 87% | 0.89 | inactive | – | –
58 | CC(=O)c1c(C)[nH]c(C(=O)C(C)N2CCN(C(=O)C3CC3)CC2)c1C (stereo not drawn) | 78% | 0.82 | inactive | – | –
59 | CS(=O)(=O)N1CCN(c2ccc(Br)cc2[N+](=O)[O-])CC1 | 103% | 0.92 | inactive | – | –
60 | Cc1cc(C(=O)OC(C)C(N)=O)c(C)n1CC(F)(F)F (stereo not drawn) | 88% | 1.05 | inactive | – | –
61 | Cc1cc(CN2CCN(CCS(=O)c3ccccc3)CC2)on1 (stereo not drawn) | 90% | 1.09 | inactive | – | –
62 | C=CCn1c(-c2cccnc2)nn(CN2CCc3ccccc3C2)c1=S | 111% | 1.12 | inactive | – | –
63 | CN1N=C(C(=O)Nc2ccc3c(c2)OC2(CCCC2)O3)CCC1=O | 92% | 0.97 | inactive | – | –
64 | Cc1cc(C)n2nc(SCC(=O)c3ccc(Br)cc3)nc2n1 | 76% | 0.93 | inactive | – | –
65 | CC1CCc2c(sc3nc(-c4cccnc4)nc(N4CCNC(=O)CC4)c23)C1 (stereo not drawn) | 84% | 0.94 | inactive | – | –
66 | COc1ccc(C23CC4CC(CC(C(=O)OC5CCOC5=O)(C4)C2)C3)cc1 (stereo not drawn) | 108% | 1.12 | inactive | – | –
67 | Cc1ccc(-c2nc(-c3ccc(C(C)(C)C)cc3)c(C)s2)cc1 | 96% | 1.12 | inactive | – | –
68 | N#CC1(c2nc3ccccc3s2)Cc2cc([N+](=O)[O-])ccc2N2CCCCC21 (stereo not drawn) | 88% | 1.17 | inactive | – | –
69 | CN1CCN(S(=O)(=O)c2ccc(Sc3ccc(Br)cc3)nc2)CC1 | 79% | 0.92 | inactive | – | –
70 | CCCNC(=O)C(C)NC(=O)Cc1c(C)nc2nc(N)nn2c1C (stereo not drawn) | 99% | 1.14 | inactive | – | –
71 | Cc1nn2c(nc(NC3CCCN(C)C3)c3ccccc32)c1Cl (stereo not drawn) | 72% | 2.03 | – | 70.3% [measured here: HeLa viability, alamarBlue, dose 10, library dosed in µg/mL] | 1.32 [dose 0.039, library dosed in µg/mL, stronger effect = higher value] (inactive)
72 | O=c1oc2ccccc2n1CN1CCCC(O)C1 (stereo not drawn) | 85% | 0.95 | inactive | – | –
73 | O=[N+]([O-])c1cc2c(c(CSc3nnnn3-c3ccc(Cl)cc3)c1)OCOC2 | 91% | 1.01 | inactive | – | –
74 | CN(Cc1nc2ccsc2c(=O)[nH]1)C(=O)CCc1nnc(-c2ccsc2)o1 | 87% | 1.17 | inactive | – | –
